This is an account of results in ChEMBL document CHEMBL3271974, “Synthesis of the antileukemic compound N,N(11)-[5-[bis(2-chloroethyl)amino]-1, 3-phenylene]bisurea” (J Med Chem, 1976).

In data set [1] the test system is P388. The data set is described as follows: Antitumor activity against mouse P388 cells allografted in mouse assessed as increase in survival rate at 30 mg/kg relative to control.
Data set [2] concerns Mus musculus. Description: Toxicity in mouse allografted with mouse P388 cells at 30 mg/kg. To be noted: in vivo.

By T/C is commonly meant the ratio of treated to control. Turning to `Cl.Nc1cc(N)cc(N(CCCl)CCCl)c1`, in data set [1], the T/C amounted to 215%. In data set [2], the Activity result was “Non-toxic”.
